In this assay the test system is cv. Early Sweet vines. As to the kind of experiment: Bud break on whole vines in a vineyard, Jordan Valley (spur pruning, hot winter). Type of assay: in vivo, Vitis vinifera. The settings on record: Example 3, FIG. 3; 10% ammonium nitrate with 2% Armobreak®; sprayed 15 January.

Among the data in patent US11213027B2, “Combined administration of a penetration agent and a sulfur containing compound to plants” (THE STATE OF ISRAEL, MINISTRY OF AGRICULTURE & RURAL …, priority 2016, dated 2022) are bud break values, retold here.

This is a selection: effects in other tests are not listed, and their absence says nothing.

With ammonium nitrate, the bud break entry was “inferior”.
